Literature values, collected in patent publication US9814778B2, “Ionically crosslinked polyelectrolytes as underwater adhesives as controlled release vehicles” (The University of Toledo, priority 2014, dated 2017).

Conditions: in solution; cited from earlier work

pyrophosphate [PPi]
pKa,2: 2.3
pKa,3: 6.6
pKa,4: 9.3
